The text below walks through data of patent publication US4865837A, “Aldoxime-substituted triazolium compounds useful in the treatment of poisoning by phosphorus-containing chemicals” (dated 1989).

Where two headings read alike, the source gives them in different places.

Assay [1] relates to acetylcholinesterase (inactivated by Soman). The settings on record: in words; amounts listed in Table II.
The test system is the same in assay [2]. The settings on record: in words; amounts listed in Table I.

Regarding `C[n+]1ccccc1C=NO.[Cl-]`, the “mice treated with 2-PAM that survived” value is “none of the mice treated with 2-PAM, in the amounts listed, survived” in assay [1] and “none of the mice treated with 2-PAM, in the amounts listed, survived” in assay [2].
